Measured values as given in patent publication US5233050A, “Antimigraine alkyl indole” (Merck & Co., Inc., priority 1992, dated 1993).

Protein sequences, listed by entry. Tags and fused reporters are not part of them.
UniProt P14842, whole entry: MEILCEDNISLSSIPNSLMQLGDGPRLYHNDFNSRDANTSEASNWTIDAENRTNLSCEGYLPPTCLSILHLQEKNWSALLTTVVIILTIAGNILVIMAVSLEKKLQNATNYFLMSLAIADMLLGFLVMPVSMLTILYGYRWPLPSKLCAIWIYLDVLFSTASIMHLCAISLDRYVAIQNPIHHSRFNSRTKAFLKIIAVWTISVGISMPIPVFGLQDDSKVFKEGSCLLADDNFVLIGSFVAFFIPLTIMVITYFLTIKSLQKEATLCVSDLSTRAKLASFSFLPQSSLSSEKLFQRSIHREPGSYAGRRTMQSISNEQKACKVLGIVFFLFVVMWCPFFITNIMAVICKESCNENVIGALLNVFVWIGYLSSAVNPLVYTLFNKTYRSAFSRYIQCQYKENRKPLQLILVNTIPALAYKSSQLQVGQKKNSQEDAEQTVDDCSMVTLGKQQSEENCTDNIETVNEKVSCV

Target: T1, 5-HT2 (Rattus norvegicus, UniProt P14842)
T1 construct: from tissue; host or cells: rat cortical membranes (inferred from the cited Titeler et al)
Assay: 5-HT2 radioligand binding assay
Conditions: for comparison; read-out: pIC50, 5-HT2 (converted)
Protocol: 5-HT1D radioligand binding assay was carried out according to Heuring and Peroutka (Heuring, R. E., and Peroutka, S. J., J. Neurosci., 7:894-903, 1987) with slight modifications as follows. Polypropylene tubes containing ^3 H-5HT (2 nM), cyanopindolol (100 nM), mesulergine (100 nM) and crude pig striatal membranes (10 mg wet weight per tube) in a final assay volume of 1 ml were used. All reagents and tissues were made up in […] Tris. HCl containing 0.1% ascorbate, 10 μM pargyline and 4 mM CaCl2 (pH 7.7 at room temperature). 5-HT (10 μM) was used to define non-specific binding. The incubation was initiated by the addition of membranes and carried out for 30 minutes at 37° C. Following incubation, membranes were rapidly filtered under vacuum through Whatmann GF/B filters using a Brandel Cell Harvester, followed by 2×3 ml washes with 50 mM Tris. HCl (pH 7.7 at room temperature). Bound radioactivity was determined by liquid scintillation spectrometry. 5-HT1A and 5-HT2 radioligand binding assays were performed according to Hall, et al., J. Neurochem., 44, 1685-1696, 1985 and Titeler, et al., Eur. J. Pharmacol., 117, 145-146, 1987, respectively.

**Q.** `CNS(=O)(=O)Cc1ccc2[nH]cc(CCN(C)C)c2c1` [sumatriptan, reference compound] was tested. Which IC50 did it give?
**A.** > 10 µM
